From PubChem BioAssay (NCI)
Where “and” joins values, the source holds several entries; their conditions need not be identical. Equal entries are not always repeated. The entries are a selection whose mix differs from that of the whole data set.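 Negative percent growth values reflect cell death: -40 means 40% of the cells present at the start died, and -100 means all died.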 Calls of active or inactive are those of the source. The calls were made as follows: active = growth percent below 10; inactive = the rest.

test system: MDA-MB-468 breast; assay: NCI-60 one-dose screen, 48 h (100 = growth as untreated, 0 = no growth, -100 = all killed); conditions: 10 µM

Q: For `Cc1c([N+](=O)[O-])c(C)c([N+](=O)[O-])c(Nc2c([N+](=O)[O-])c(C)c([N+](=O)[O-])c(C)c2[N+](=O)[O-])c1[N+](=O)[O-]`, which growth is on record?
A: active: -6.94%

Q: For `CN(C)Nc1c([N+](=O)[O-])cc([N+](=O)[O-])cc1[N+](=O)[O-]`, which growth is on record?
A: inactive: 81.2%

Q: With `COC(=O)C(O)(c1ccccc1)c1ccccc1` as the compound, how does the growth read?
A: inactive: 98.7%

Q: For `O=C1C(O)=C([N+](=O)[O-])C(=O)C(O)=C1[N+](=O)[O-]`, which growth is on record?
A: inactive: 106%

Q: For `O=C(Cl)c1c([N+](=O)[O-])cc([N+](=O)[O-])cc1[N+](=O)[O-]`, which growth is on record?
A: active: -68.2%

Q: Which growth does the source give for `CN(Cc1cccnc1)C(=O)COc1ccc(Cl)c(Cl)c1.O=[N+]([O-])c1cc([N+](=O)[O-])c(O)c([N+](=O)[O-])c1` here?
A: inactive: 94.1%

Q: With `O=C(O)C1(O)c2ccccc2-c2ccccc21` as the compound, how does the growth read?
A: inactive: 99.3% and inactive: 88.8%

Q: For `n1nc(-c2nn[nH]n2)n[nH]1`, which growth is on record?
A: inactive: 90%

Q: For `CCN(CC)CCS`, which growth is on record?
A: inactive: 95.8%

Q: For `O=[N+]([O-])c1cc([N+](=O)[O-])c(NCCO)c([N+](=O)[O-])c1`, which growth is on record?
A: inactive: 79.7%

Q: Which growth does the source give for `CP(=O)(OCCCl)N(CCCl)CCCl` (stereo not given) here?
A: inactive: 102%

Q: With `CN1CCN(CCOC(=O)C(O)(c2ccccc2)c2ccccc2)CC1` as the compound, how does the growth read?
A: inactive: 96.4%

Q: For `O=[N+]([O-])c1cc([N+](=O)[O-])c(Nc2nnnn2CCO)c([N+](=O)[O-])c1`, which growth is on record?
A: inactive: 96.3%

Q: For `NC(=NCCN/C(N)=N/[N+](=O)[O-])N[N+](=O)[O-]`, which growth is on record?
A: inactive: 109%

Q: For `Cc1ccc(Nc2c([N+](=O)[O-])cc([N+](=O)[O-])cc2[N+](=O)[O-])cc1`, which growth is on record?
A: inactive: 69.2%

Q: For `CC(C)N1CCN(CCOC(=O)C(O)(c2ccccc2)c2ccccc2)CC1`, which growth is on record?
A: inactive: 108%

Q: With `CN(CCO)CCCl.O=[N+]([O-])c1cc([N+](=O)[O-])c(O)c([N+](=O)[O-])c1` as the compound, how does the growth read?
A: inactive: 97.8%

Q: How did the growth turn out when `O=C(OCCN1CCCCCCCC1)C(O)(c1ccccc1)c1ccccc1` was run?
A: inactive: 105%

Q: How did the growth turn out when `Cc1c([N+](=O)[O-])c(C)c([N+](=O)[O-])c(C)c1[N+](=O)[O-]` was run?
A: inactive: 111%

Q: With `CCN(CC)CCOC(=O)C(O)(c1cc(C)cc(C)c1)c1cc(C)cc(C)c1` as the compound, how does the growth read?
A: inactive: 98.5%

Q: `O=[N+]([O-])OCCOc1ccc([N+](=O)[O-])cc1[N+](=O)[O-]` was tested. Which growth did it give?
A: inactive: 99.8%

Q: With `Cc1c([N+](=O)[O-])cc([N+](=O)[O-])c(Br)c1[N+](=O)[O-]` as the compound, how does the growth read?
A: active: -67.8%

Q: `O=[N+]([O-])c1cc([N+](=O)[O-])c(Nc2ccc(Cl)cc2)c([N+](=O)[O-])c1` was tested. Which growth did it give?
A: active: -6.01%

Q: Which growth does the source give for `CCN(CC)CCOC(=O)C(O)(c1ccccc1)c1cc(C)cc(C)c1C` (stereo not given) here?
A: inactive: 97%

Q: How did the growth turn out when `O=[N+]([O-])c1ccc(Oc2c([N+](=O)[O-])cc([N+](=O)[O-])cc2[N+](=O)[O-])cc1` was run?
A: inactive: 93.1%

Q: How did the growth turn out when `O=[N+]([O-])c1cc([N+](=O)[O-])c(O)c([N+](=O)[O-])c1.c1ccc(Cc2ccncc2)cc1` was run?
A: inactive: 88.3%

Q: How did the growth turn out when `O=[N+]([O-])c1cc([N+](=O)[O-])c(Oc2ccccc2)c([N+](=O)[O-])c1` was run?
A: inactive: 104%

Q: How did the growth turn out when `CCOC(=O)Nc1c([N+](=O)[O-])cc([N+](=O)[O-])cc1[N+](=O)[O-]` was run?
A: inactive: 61.5%

Q: How did the growth turn out when `CN(C)CCS` was run?
A: inactive: 97.9% and inactive: 97.4%

Q: How did the growth turn out when `CC(C)N(CCCl)C(C)C` was run?
A: inactive: 103%
